We go through eight compounds from PubChem BioAssay (Tox21).

By UniProt entry, the sequences of proteins in these tests, tags left out.
UniProt P08659, whole entry: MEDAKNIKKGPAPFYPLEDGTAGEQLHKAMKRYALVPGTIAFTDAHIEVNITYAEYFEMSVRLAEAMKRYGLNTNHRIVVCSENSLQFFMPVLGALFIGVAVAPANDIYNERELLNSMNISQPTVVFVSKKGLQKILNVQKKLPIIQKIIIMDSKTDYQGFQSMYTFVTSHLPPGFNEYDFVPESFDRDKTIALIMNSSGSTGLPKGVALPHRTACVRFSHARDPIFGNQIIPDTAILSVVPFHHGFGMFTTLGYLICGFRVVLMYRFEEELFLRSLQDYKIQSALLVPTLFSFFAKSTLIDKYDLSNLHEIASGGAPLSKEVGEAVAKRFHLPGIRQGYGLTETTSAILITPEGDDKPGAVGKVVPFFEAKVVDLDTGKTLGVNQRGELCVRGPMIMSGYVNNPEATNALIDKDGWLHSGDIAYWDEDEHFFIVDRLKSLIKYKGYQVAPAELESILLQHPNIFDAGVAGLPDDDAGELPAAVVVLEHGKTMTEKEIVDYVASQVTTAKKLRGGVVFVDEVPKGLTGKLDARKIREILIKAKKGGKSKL
UniProt Q14994, whole entry: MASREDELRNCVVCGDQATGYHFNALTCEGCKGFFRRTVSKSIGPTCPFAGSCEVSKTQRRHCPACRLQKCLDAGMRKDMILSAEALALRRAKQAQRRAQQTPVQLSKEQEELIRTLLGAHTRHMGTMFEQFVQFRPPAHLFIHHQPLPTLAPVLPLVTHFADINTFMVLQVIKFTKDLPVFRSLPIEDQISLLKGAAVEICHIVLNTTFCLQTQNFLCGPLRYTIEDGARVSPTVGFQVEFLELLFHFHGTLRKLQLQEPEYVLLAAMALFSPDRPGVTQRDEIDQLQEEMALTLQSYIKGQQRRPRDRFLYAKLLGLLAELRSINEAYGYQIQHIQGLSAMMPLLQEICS

“And” between values parts separate entries of the source, which are not always exact repeats. Identical values can stand only once. The list shows a part of the results, in another mix than the full data. Records with an inconclusive call do not appear. Some structures have more than one record in an assay (separate samples or runs), and their calls can disagree. The source made the active and inactive calls. Unless noted, calls follow the shape of the dose curve; as a rule, active = well fitted curve in the direction sought with a large enough effect in the repeat runs; inconclusive = weak or mixed curves; inactive = no such curve, though single readings can be large; an effect the other way counts as inactive or inconclusive.

Experiment [1] is described as follows: qHTS assay to identify small molecule antagonists of the estrogen related receptor (ERR) signaling pathway from Tox21 library - cell viability counter screen (AID 1224834). Also: nearly all actives have a fitted effect of over 30% in size. The settings on record: ERR reporter cells viability, CellTiter-Fluor, 17.5 h; at 92.4 µM (top of the series) unless noted. From the text:
National Center for Advancing Translational Sciences [NCATS]
NIH Chemical Genomics Center [NCGC]
U.S. Environmental Protection Agency [EPA]
National Institutes of Environmental Health Sciences [NIEHS]
National Toxicology Program [NTP]
U.S. Food and Drug Administration [FDA]
Estrogen related receptors (ERRs), the first orphan nuclear receptors discovered, play an important role in the control of cellular energy metabolism. ERRs are required for high-energy production in response to the environmental challenges. ERR-alpha was also identified as an adverse marker for breast cancer progression; ERR-alpha-positive tumors have a poor prognosis. To screen and to identify environmental compounds that perturb the ERR signaling pathways could provide valuable information for potential therapeutic or preventive measures in the treatment of metabolic disease. To differentiate true ERR antagonists or agonist from cytotoxic substances, the assay is multiplexed with cell viability assay.
Tox21 Assay Protocol Summary:
The ERR cells were dispensed at 2,000 cells/5 ul/well in 1536-well white plates using a Multidrop dispenser. After the assay plates were incubated at a 37 C/5% CO2 incubator for 6 hours, 23 nL of compounds dissolved in DMSO, positive and negative controls or DMSO only was transferred to the assay plate by a pin tool. The plates were incubated at 37 C for 17.5 hours. 1 ul/well of CellTiter-Fluor reagent was added into the assay plates using a Flying Reagent Dispenser. After 30-minute incubation at 37 C/5% CO2, the fluorescence intensity in the plates was measured using a ViewLux plate reader.
(Quantitative high-throughput screening tests each substance at several concentrations.)

In experiment [2] the target is Luciferin 4-monooxygenase (Photinus pyralis) (UniProt P08659). The experiment is described as follows: qHTS assay to identify small molecule inhibitors of firefly luciferase (AID 1224835). Also: nearly all actives have a fitted effect of over 25% in size. Conditions: purified P. pyralis luciferase, luminescence inhibition; at 115 µM (top of the series) unless noted. The procedure, abridged: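 Quantitative HTS format; KM concentrations of both substrates. Purified P. pyralis FLuc activity quantified from luminescence images.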

The nature of experiment [3]: qHTS assay to identify small molecule agonists of the constitutive androstane receptor (CAR) signaling pathway - cell viability counter screen (AID 1224836). Also: nearly all actives have a fitted effect of over 45% in size. The settings on record: HepG2-CYP2B6-hCAR viability, CellTiter-Fluor, 23 h, PK11195 added to every well; at 92.4 µM (top of the series) unless noted. The gist of the method:
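Viability read-out: CellTiter-Fluor fluorescence after 23 h compound exposure at 37 C/5% CO2 in double-stable HepG2-CYP2B6-hCAR cells, with PK11195 present at 0.75 uM final; compounds tested in 15-point titration.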

Experiment [4] is described as follows: qHTS assay to identify small molecule antagonists of the constitutive androstane receptor (CAR) signaling pathway - cell viability counter screen (AID 1224837). Also: nearly all actives have a fitted effect of over 45% in size. Conditions: HepG2-CYP2B6-hCAR viability, CellTiter-Fluor, 23 h, co-treated with 50 nM CITCO; at 92.4 µM (top of the series) unless noted. The gist of the method: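 Counter screen run in HepG2-CYP2B6-hCAR cells: 4 hr settle, compound titration (15 concentrations) with 50 nM CITCO, 23 hr at 37 C/5% CO2, CellTiter-Fluor fluorescence.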

Experiment [5] addresses Nuclear receptor subfamily 1 group I member 3 (Homo sapiens) (UniProt Q14994). Nature of the experiment: qHTS assay to identify small molecule antagonists of the constitutive androstane receptor (CAR) signaling pathway (AID 1224838).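 Also: HepG2 cells stably expressing hCAR with CYP2B6 luciferase reporter stimulated by CITCO; nearly all actives have a fitted effect of over 40% in size.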 Conditions: HepG2-CYP2B6-hCAR luciferase, CITCO-stimulated, 24 h; at 92.4 µM (top of the series) unless noted.
Experiment [6] shares this target. Nature of the experiment: qHTS assay to identify small molecule agonists of the constitutive androstane receptor (CAR) signaling pathway (AID 1224839).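 Also: HepG2 cells stably carrying human CAR and a CYP2B6 luciferase reporter; nearly all actives have a fitted effect of over 15% in size.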 The settings on record: HepG2 hCAR CYP2B6-luciferase, agonist mode, 24 h; at 92.4 µM (top of the series) unless noted.
The nature of experiment [7]: qHTS assay to identify small molecule antagonists of the estrogen related receptor signaling pathway with the pleiotropic PPARgamma coactivator (PGC) from Tox21 10K library - cell viability counter screen (AID 1224840; active = well fitted cell-killing curve with a large enough effect in the repeat runs, not every such curve was filed as active; also: nearly all actives have a fitted effect of over 40% in size). The settings on record: PGC/ERR reporter cells viability, CellTiter-Fluor, 17.5 h; at 92.4 µM (top of the series) unless noted. The procedure, abridged: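 Following seeding of 2,000 PGC/ERR cells/well and 6 hours' incubation, test compounds were delivered in DMSO. The plates then sat 17.5 hours at 37 C before a fluorogenic live-cell protease reagent (CellTiter-Fluor) was read after 30 min.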

Experiment [8] is described as follows: qHTS assay to identify small molecule antagonists of the estrogen related receptor signaling pathway with the pleiotropic PPARgamma coactivator (PGC) from Tox21 10K library (AID 1224841; call rule not given here; also: actives are mostly falling curves and most rising ones were filed inactive; nearly all actives have a fitted effect of over 50% in size; also: potency is read from the fitted curve at half-maximal effect).
The nature of experiment [9]: qHTS assay to identify small molecule agonists of the estrogen related receptor signaling pathway with the pleiotropic PPARgamma coactivator (PGC) from Tox21 10K library (AID 1224842). Also: nearly all actives have a fitted effect of over 15% in size. The settings on record: PGC/ERR reporter cell line, luciferase ONE-Glo, 18 h; at 92.4 µM (top of the series) unless noted. The procedure, abridged:
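PGC/ERR reporter cells (NTP line) were seeded 2,000 per well, rested 6 h at 37 C/5% CO2, then pin-dosed with compounds in DMSO for 18 h at 37 C; luciferase read by One-Glo luminescence after 30 min at room temperature.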

Experiment [10] is described as follows: qHTS assay to identify small molecule agonists of the retinoic acid receptor (RAR) signaling pathway (AID 1159553). The settings on record: C3RL4 RARE luciferase reporter, agonist, 6 h. The gist of the method: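 Reporter readout comes from luciferase under RARE control in C3RL4 cells; compound exposure lasts 6 hr at 37 C in 5% CO2, and luminescence is recorded following a 30 min room-temperature incubation with reagent.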
% is scaled to controls: 0 for no effect and ±100 for the full control effect.

For `CC(C)OP(OC(C)C)OC(C)C`, the values for the viability change, negative = cytotoxic in experiment [1], in [3] and in experiment [7] were inactive: 1.6%, inactive: 2.76% and inactive: 4.7%, respectively. Also, the activity change, negative = inhibition in [2] is inactive: 1.64%. In [4], the activity change, negative = cytotoxicity is inactive: 0.58%. For the same compound, the activity, negative = inhibition in experiment [5] is inactive: -2.57%. Besides, the activation in experiment [6] is inactive: 0.133%; in experiment [9], inactive: 5.71%. The Potency entry in experiment [8] is “inactive”.

`CCOC(=O)N1CCC(=O)CC1`: the activation in experiment [10] (at 73.3 µM (top of the series)) is inactive: 0.33%; in experiment [6] it was inactive: 0.0974% [at 42.5 µM]; in [9], inactive: -0.692% [at 42.5 µM]. The viability change, negative = cytotoxic in experiment [1] is inactive: 2.67% [at 42.5 µM]; in experiment [3], inactive: 5.64% [at 42.5 µM]; in experiment [7], inactive: -1.79% [at 42.5 µM]. Also, the activity change, negative = inhibition in experiment [2] was inactive: -0.195% [at 52.9 µM]. The activity change, negative = cytotoxicity in experiment [4] is inactive: 2.05% [at 42.5 µM]. The activity, negative = inhibition in experiment [5] was inactive: -13.7% [at 42.5 µM]. Besides, the Potency result in experiment [8] was “inactive”.

As to `O=[N+]([O-])c1ccccc1[N+](=O)[O-]`, the activation in experiment [10] (at 73.3 µM (top of the series)) is inactive: 2.88%; in [10] (at 94.8 µM (top of the series)), inactive: 1.76%; in [9], inactive: -18.4% and inactive: -8.16%. Further, the viability change, negative = cytotoxic in [1] was inactive: -9.56%; in [7] it was inactive: -14.2% and inactive: -18.2%. Further, the activity, negative = inhibition in experiment [5] is inactive: -29.1% and inactive: -61.2%. Moreover, the Potency in experiment [8] was active: 35.3 µM and inactive.

With `CCC(=O)N(c1ccccc1)C1CCNCC1`, the activation in experiment [10] (at 73.3 µM (top of the series)) was inactive: -3.14%; in [9] it was inactive: 0.0458% [at 42.5 µM]. Further, the viability change, negative = cytotoxic is inactive: 0.195% [at 42.5 µM] in [1], inactive: -13.1% [at 42.5 µM] in experiment [3] and inactive: -3.28% [at 42.5 µM] in experiment [7]. Moreover, the activity change, negative = inhibition in experiment [2] is inactive: -3.71% [at 52.9 µM]. Moreover, the activity change, negative = cytotoxicity in [4] is inactive: -14.9% [at 42.5 µM]. Besides, in [8], the Potency result was “inactive”.

On to `ClCCNCCCl`, for which the activity change, negative = inhibition in experiment [2] was inactive: 0.138%. The results for the viability change, negative = cytotoxic in experiment [3] and in experiment [7] were inactive: 0.942% and inactive: 5.62%, respectively. In addition, the activity change, negative = cytotoxicity in experiment [4] is inactive: 2.07%. For the same compound, in experiment [5], the activity, negative = inhibition was inactive: -17.7%. The values for the activation in experiment [6] and in experiment [9] were inactive: 1.45% and inactive: -6.93%, respectively.

As for `CCOP(=O)(Cl)Cl`, the activation in [10] (at 73.3 µM (top of the series)) is inactive: -4.02% and inactive: -1.72%; in [6], inactive: 3.86% and inactive: -0.874%; in [9] it was inactive: 3.24% and inactive: -4.15%. Besides, the viability change, negative = cytotoxic in experiment [1] was inactive: -1.28% and inactive: 3.6%; in experiment [3] it was inactive: 4.59% and inactive: 3.68%; in experiment [7] it was inactive: -0.451% and inactive: 0.346%. The activity change, negative = inhibition in experiment [2] is inactive: -5.69% and inactive: 0.548%. For the same compound, the activity change, negative = cytotoxicity in experiment [4] was inactive: 8.46% and inactive: 1.13%. The activity, negative = inhibition in experiment [5] is inactive: 8.96% and inactive: -2.79%. The Potency entry in experiment [8] was “inactive”.

In the case of `ClCCOP(OCCCl)OCCCl`, the activation in experiment [10] (at 73.3 µM (top of the series)) was inactive: -1.86%; in [10] (at 94.8 µM (top of the series)) it was inactive: -0.0191%; in [6] it was inactive: 1.32% and inactive: -0.264%; in [9], inactive: -4.53% and inactive: -8.2%. Further, the viability change, negative = cytotoxic in [1] was inactive: -0.941%; in [3] it was inactive: 1.77% and inactive: 0.487%; in experiment [7], inactive: 1.19% and inactive: -1.91%. In addition, the activity change, negative = inhibition in experiment [2] is inactive: 0.677% and inactive: 3.31%. Also, in [4], the activity change, negative = cytotoxicity was inactive: 2% and inactive: 7.27%. Besides, the activity, negative = inhibition in [5] was inactive: 28.4% and inactive: -0.0475%.

For `CCOP(=S)(Cl)OCC`, the viability change, negative = cytotoxic in experiment [1] was inactive: 1.08%; in experiment [3], inactive: 1.84%; in [7], inactive: 0.865%. In addition, in [4], the activity change, negative = cytotoxicity is inactive: 0.0766%. In addition, the activity, negative = inhibition in experiment [5] was inactive: 1.02%. Further, the values for the activation in [6] and in experiment [9] were inactive: 0.903% and inactive: 0.36%, respectively. For the same compound, the Potency result in experiment [8] was “inactive”.
